The results in this text go back to patent US8367677B2, “Non-glycosylated/non-glycosidic/non-peptidic small molecule PSGL-1 mimetics for the treatment of inflammatory disorders” (Revotar Biopharmaceuticals AG, priority 2004, dated 2013).

For test [1], the target named is T1, human L-Selectin-IgG-chimera (Homo sapiens, UniProt P14151).
T1 construct: fused on or other part: human IgG Fc part, a tag and dimerising handle that is captured by the goat anti-human Fc antibody on the plate
T1 sequence (P14151 39-318 limits assumed): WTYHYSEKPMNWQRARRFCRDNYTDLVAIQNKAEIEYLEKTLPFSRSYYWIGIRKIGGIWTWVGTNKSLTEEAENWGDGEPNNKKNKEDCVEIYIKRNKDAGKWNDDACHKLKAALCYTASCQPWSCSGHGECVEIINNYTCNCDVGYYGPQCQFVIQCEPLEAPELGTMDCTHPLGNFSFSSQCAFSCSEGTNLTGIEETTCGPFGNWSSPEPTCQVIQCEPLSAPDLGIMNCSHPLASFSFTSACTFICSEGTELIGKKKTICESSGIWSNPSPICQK
Nature of the test: Sialyl Lewis x Tyrosine Sulfate Assay (sLex TSA), L-selectin. It counts as binding. As for the experimental part: (§1) Compounds of the present invention are assayed on a molecular level for their ability to inhibit the binding of P-, L-, or E-selectin chimeric molecules to sLe^x and tyrosinesulfate residues linked to a polymeric matrix as a PSGL-1 substitute. Selected 50% inhibitory concentrations (IC50-values) are determined.
(§2) Microtiter plates are coated overnight in carbonate buffer pH9.6 with goat anti human Fc mAB (10 μg/ml). After washing in assay buffer (25 mM 4-(2-hydroxyethyl)-1-piperazineethanesulfonic acid (HEPES), 150 mM NaCl, 1 mM CaCl2 pH7.4) and blocking (3% bovine serum albumin (BSA) in assay buffer) plates are incubated for 2 h at 37° C. with human P-Selectin-IgG-chimera (0.61 nM respectively 150 ng/mL) or human L-Selectin-IgG-chimera (0.61 nM respectively 89 ng/mL) or human E-Selectin-IgG-chimera (0.61 nM respectively 131 ng/mL). 5 μl of sLe^x-tyrosine sulfate polyacrylamide (1 mg/ml) carrying 15% sLe^x, 10% Tyrosine-sulfate and 5% biotin is complexed with 20 μl Streptavidin-Peroxidase solution (1 mg/ml) and 25 μl assay buffer without CaCl2. For use in the assay, the ligand complex is diluted 1:10000 in assay buffer and further diluted 1:1 with varying amounts of compounds in assay buffer incl. […] Bound sLe^x-Tyrosine sulfate ligand complex is determined by measuring optical density at 450 nm vs. 620 nm in a Fusion alpha-FP reader (sold from Packard Bioscience, Dreieich, Germany).

The target of test [2] is T2, human P-Selectin-IgG-chimera (Homo sapiens, UniProt P16109).
T2 sequence (P16109 42-771 limits assumed): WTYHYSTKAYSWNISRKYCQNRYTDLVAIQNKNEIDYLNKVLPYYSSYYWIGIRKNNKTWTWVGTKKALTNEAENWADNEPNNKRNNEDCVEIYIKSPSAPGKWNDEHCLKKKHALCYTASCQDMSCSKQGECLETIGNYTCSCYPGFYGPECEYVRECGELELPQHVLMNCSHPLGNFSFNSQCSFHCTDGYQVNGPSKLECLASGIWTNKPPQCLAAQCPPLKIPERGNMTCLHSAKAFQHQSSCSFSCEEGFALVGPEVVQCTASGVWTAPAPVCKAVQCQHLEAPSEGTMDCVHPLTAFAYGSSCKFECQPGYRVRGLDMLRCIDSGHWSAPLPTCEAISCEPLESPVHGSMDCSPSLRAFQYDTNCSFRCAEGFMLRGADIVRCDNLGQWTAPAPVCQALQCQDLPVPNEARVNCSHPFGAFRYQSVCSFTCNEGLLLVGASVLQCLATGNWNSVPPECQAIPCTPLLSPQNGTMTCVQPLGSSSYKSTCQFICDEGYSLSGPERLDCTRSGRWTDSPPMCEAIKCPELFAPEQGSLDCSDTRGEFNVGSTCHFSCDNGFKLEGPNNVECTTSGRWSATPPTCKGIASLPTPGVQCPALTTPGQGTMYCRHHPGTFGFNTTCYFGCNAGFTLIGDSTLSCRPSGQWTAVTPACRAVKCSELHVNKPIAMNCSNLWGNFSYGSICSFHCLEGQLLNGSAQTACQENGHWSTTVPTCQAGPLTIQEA
Nature of the test: Sialyl Lewis x Tyrosine Sulfate Assay (sLex TSA), P-selectin. It counts as binding. The method, then:
as §1, §2

The IC50 is the concentration needed to halve the response being measured. A low value points to greater potency in that assay. With `O=C(O)Cc1cccc(NC(=O)CCc2cc(O)c(O)c(O)c2)c1` [Compound 109], the 50% inhibitory concentration (IC50) in test [1] and in test [2] was 2300 nM each time.
